Legend:
[1] = tested on: CAL-78, OUMS-27, SW1353, H-EMC-SS, SW620, HS-SY-II; assay: Cytotoxicity screens INBRX-109 + CDK9 or MCL-1 inhibitor, summary over the cell lines; format: cell-based; settings: combination with INBRX-109
Source text: Data was graphed in GraphPad Prism 9.

CAL-78 = assay: Cell viability (CellTiter-Glo) cytotoxicity assay, INBRX-109 x CDK9 or MCL-1 inhibitor matrix, 48 h, chondrosarcoma line

## CCc1cnn2c(NCc3ccc[n+]([O-])c3)cc(N3CCCC[C@H]3CCO)nc12 [Dinaciclib]
[1]
  cell killing by the combination: increased cell killing on nearly every cancer cell line tested
CAL-78; dinaciclib + 1 nM INBRX-109
  Max Cytotox: 91.4%
CAL-78; dinaciclib only
  Max Cytotox at 25 nM: 47.1%
